How the values were obtained:
Test in all cases: Off-target profiling panel
Eta antagonist = Eta antagonist (Homo sapiens, UniProt P25101); format: cell-based; settings: BQ-123 75 nM
op-mu = op-mu (Homo sapiens, UniProt P35372); format: binding; settings: DAMGO 1,000 nM
Procedure: To assess the in vivo pharmacokinetics of MBE1, we assessed the measured plasma concentrations following a 1 mg/kg intravenous or 10 mg/kg oral dose of MBE1 in fasted male CD-1 mice.

Protein sequences, listed by entry. Tags and fused reporters are not part of them. Residues count along the entry.
UniProt P25101, 21-427: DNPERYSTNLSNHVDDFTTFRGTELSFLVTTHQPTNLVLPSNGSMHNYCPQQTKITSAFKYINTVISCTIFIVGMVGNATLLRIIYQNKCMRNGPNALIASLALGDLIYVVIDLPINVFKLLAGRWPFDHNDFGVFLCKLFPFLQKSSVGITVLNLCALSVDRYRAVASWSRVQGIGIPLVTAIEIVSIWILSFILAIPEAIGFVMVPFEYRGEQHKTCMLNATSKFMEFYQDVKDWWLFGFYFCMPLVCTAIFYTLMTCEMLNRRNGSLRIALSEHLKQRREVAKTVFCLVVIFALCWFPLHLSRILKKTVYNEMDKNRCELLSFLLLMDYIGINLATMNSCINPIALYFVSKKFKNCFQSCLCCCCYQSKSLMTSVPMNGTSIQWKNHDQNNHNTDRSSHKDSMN
UniProt P35372, whole entry: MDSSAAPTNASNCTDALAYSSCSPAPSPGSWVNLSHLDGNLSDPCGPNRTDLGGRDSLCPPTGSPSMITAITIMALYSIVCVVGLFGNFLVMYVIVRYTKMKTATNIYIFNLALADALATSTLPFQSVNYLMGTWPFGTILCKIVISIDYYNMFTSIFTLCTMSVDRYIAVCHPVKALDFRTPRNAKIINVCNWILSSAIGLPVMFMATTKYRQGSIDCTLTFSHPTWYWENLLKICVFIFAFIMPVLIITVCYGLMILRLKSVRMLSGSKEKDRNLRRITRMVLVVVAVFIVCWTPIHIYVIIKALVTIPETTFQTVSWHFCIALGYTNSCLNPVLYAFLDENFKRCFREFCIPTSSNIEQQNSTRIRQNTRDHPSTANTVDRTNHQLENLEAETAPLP

Eta agonist = Eta agonist (Homo sapiens, UniProt P25101); format: cell-based; settings: endothelin 1 300 nM; activation

BQ-123 [reference compound]
Inhibition by reference at listed dose (%) (Eta antagonist): 99.32%

DAMGO [reference compound]
Inhibition by reference at listed dose (%) (op-mu): 102.03%

endothelin 1 [reference compound]
Inhibition by reference at listed dose (%) (Eta agonist): 118.83 (activation) %
